# AlphaSeq binding of Ab-14 light chain variants to a spike HR2 peptide

Values reported by Li et al. 2023, doi:10.1038/s41467-023-39022-2 (FLAb copy).

Binding partner: SARS-CoV-2 spike HR2 peptide, sequence PDVDLGDISGINAS.

Ab-14 is the parent antibody, in scFv form: VH, then the linker GGGGSGGGGSGGGGS, then VL. The heavy chain is unchanged in all variants.
VH: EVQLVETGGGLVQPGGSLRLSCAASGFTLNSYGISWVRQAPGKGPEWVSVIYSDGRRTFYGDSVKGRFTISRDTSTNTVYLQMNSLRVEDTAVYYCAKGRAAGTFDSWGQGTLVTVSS
VL: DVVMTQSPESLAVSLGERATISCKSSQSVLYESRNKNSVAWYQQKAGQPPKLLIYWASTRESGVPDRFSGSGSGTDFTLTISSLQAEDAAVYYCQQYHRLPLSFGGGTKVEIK

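The parent was found by panning a naive human phage display library on the peptide. This is the validation round: designs drawn from the data on random variants, tested in the same kind of assay. Several design methods are mixed in this list. AlphaSeq pools MATa yeast showing the antibodies with MATalpha yeast showing the peptide. Binding brings cells together so that they mate, and sequencing counts the barcode pairs among the diploids. The ratio of observed to expected reads was calibrated, replicate by replicate, on BCL2-family standards whose Kd was known from biolayer interferometry. The assay was run in six technical replicates.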

Variants are written as CDR1, CDR2 and CDR3 of the light chain (limits as in the source). Parent: KSSQSVLYESRNKNSVA, WASTRES, QQYHRLPLS.
Variants here have at most six changes.
Each Kd is an estimate from the mating assay, the geometric mean of the replicates in which the pair was seen; lower is stronger.
A pair that was not seen in any replicate is written "nd"; this usually means weak binding, but a binder can also be missed.
Entries are sorted by rising average, undetected variants last.

* KSSISWLIESRNKNSVA / EASTRES / QQYHRLPLS = 380 pM (6 of 6 replicates)
* KLSQSVLYLSRNKNSVA / DASTRES / QQYHRLPLS = 390 pM (6 of 6 replicates)
* KLSQSWLYESRNKNSVA / NASTRLS / QQYHRLPLS = 470 pM (6 of 6 replicates)
* KLSGSTLYESRNKNSVA / NASTRES / QQYHRLPLS = 490 pM (6 of 6 replicates)
* KVSQSILCESRNKNSVA / DASTRES / QQYHRLPLS = 520 pM (6 of 6 replicates)
* KVSQSSLYESRNKNSVA / NASTRES / QQYHRLPLS = 610 pM (6 of 6 replicates)
* KLSWSELYESRNKNSVA / NASTRMS / QQYHRLPLS = 640 pM (6 of 6 replicates)
* KLSQSHLYESRNKNSVA / NASQREQ / QQYHRLPLS = 650 pM (6 of 6 replicates)
* KLSQSVLYEDRVKNSVA / NASTRES / QQYHRLPLS = 670 pM (6 of 6 replicates)
* KFSQSVLMESRDENSVA / HASTRES / QQYHRLPLS = 690 pM (6 of 6 replicates)
* KISQSVLYESRNKNSVA / GASTRER / QQYHRLPLS = 900 pM (6 of 6 replicates)
* KLSQSVLYESRDKNSVA / DASTRES / QQYHRLPLS = 1.0 nM (6 of 6 replicates)
* KLQQSVLYESRNKNSVA / NASTRMD / QQYHRLPLS = 1.1 nM (6 of 6 replicates)
* KVSQSWLYESRNKNSVA / NASTRES / QSYHRLPLS = 1.2 nM (6 of 6 replicates)
* KVSQSNGYESRMKNSVA / NASQRES / QQYHRLPLS = 1.2 nM (6 of 6 replicates)
* KLPQSVLYESRNKNSVA / NASTRMS / QQYHRLPLS = 1.4 nM (6 of 6 replicates)
* KLEQSVLYESRNKNSVA / NASQRMS / QQYHRLPLS = 1.4 nM (6 of 6 replicates)
* KLSQSNPYESRNKNSVA / NASTRES / QQYHRLPLS = 1.8 nM (6 of 6 replicates)
* KFSQSDLYESRNKNSVA / EASTRES / QQYHRLPLS = 1.9 nM (6 of 6 replicates)
* KSSWSPLYESRNKNSVA / DASTRES / QQYHRLPLS = 2.2 nM (6 of 6 replicates)
* KFSQSVLYESRQSNRVA / NASTRES / QQYHRLPLS = 2.7 nM (6 of 6 replicates)
* KLMQSTLYESRNKNSVA / NASTRLS / QQYHRLPLS = 3.2 nM (6 of 6 replicates)
* KSGQSVWYESRNKNSVA / DASTRER / QQYHRLPLS = 3.6 nM (6 of 6 replicates)
* KLSQSVLYQSRNKNNVA / DASTRES / QQYHRLPLS = 4.5 nM (6 of 6 replicates)
* KMSQSVLYESRNKNSVA / WASTRES / QQYHHLPLS = 4.6 nM (6 of 6 replicates)
* KSSQSVLYESRNKNSVA / KASVRES / QQYHRLPLS = 5.5 nM (6 of 6 replicates)
* KLRQSTLYESRNKNSVA / NASTRES / QQYHRLHLS = 5.9 nM (6 of 6 replicates)
* KSSISYLYESMNKNSVA / MGSTRES / QQYHRLPLS = 6.8 nM (6 of 6 replicates)
* KLSMSVLDESRNKNSVA / WASTRES / QQYHRLPLS = 7.0 nM (6 of 6 replicates)
* KLSQSWLMESRNKNQVA / HASTRMS / QQYHRLPLS = 9.3 nM (6 of 6 replicates)
* KSLGSWLYESRNKNSVA / HASTREQ / QQYHRLPLS = 11 nM (6 of 6 replicates)
* KISQSTLYESRNKNSVA / WASTRES / QQGHRLPLS = 12 nM (6 of 6 replicates)
* EVSQSVLYESRNHNSVA / WASTREV / QQYHRLPLS = 15 nM (3 of 6 replicates)
* KSSISYLYESLNKYSVA / EASQRES / QQYHRLPLS = 16 nM (6 of 6 replicates)
* KSSQSVLYESRLTNSVA / SASTRES / QQYHRLPLS = 17 nM (4 of 6 replicates)
* KSSQSVLKESRNKNSVA / SASTRES / QQYHRAPLS = 21 nM (6 of 6 replicates)
* KSSQSVLYEDRNKNSVA / KASTRES / QQYHRLPIS = 56 nM (6 of 6 replicates)
* KSSHSVLNESRNKNSVA / WASTRES / QQYHRLPLS = 64 nM (6 of 6 replicates)
* KSSQSVLYESRLKNPVA / WASTRES / QQYHRLPLS = 89 nM (1 of 6 replicates)
* KSSQSVLYESRNKNSVA / EASTRES / AQYHRLPLS = 90 nM (6 of 6 replicates)
* KSSGGVLYESRNKNSVA / WASTRES / QQCHRLPLS = 320 nM (4 of 6 replicates)
* KSSWSVLYESTNMNSVA / WASTRES / QQYARLPNS = nd (0 of 6 replicates)
* KSSQSLLYEWRNKNSVA / RASKRES / QQYHRLPLS = nd (0 of 6 replicates)

The first 7 entries again:

* KSSISWLIESRNKNSVA / EASTRES / QQYHRLPLS: 380 pM (6 of 6 replicates)
* KLSQSVLYLSRNKNSVA / DASTRES / QQYHRLPLS: 390 pM (6 of 6 replicates)
* KLSQSWLYESRNKNSVA / NASTRLS / QQYHRLPLS: 470 pM (6 of 6 replicates)
* KLSGSTLYESRNKNSVA / NASTRES / QQYHRLPLS: 490 pM (6 of 6 replicates)
* KVSQSILCESRNKNSVA / DASTRES / QQYHRLPLS: 520 pM (6 of 6 replicates)
* KVSQSSLYESRNKNSVA / NASTRES / QQYHRLPLS: 610 pM (6 of 6 replicates)
* KLSWSELYESRNKNSVA / NASTRMS / QQYHRLPLS: 640 pM (6 of 6 replicates)

A sequence measured in both rounds can read differently, since the two assays cover different ranges.
Of ten entries with the parent sequence, four were seen in most replicates (averages 2.2 nM to 240 nM), three in one and three in none, so single entries are noisy.
The authors' rule: three or more of the six replicates give a measured affinity, fewer mean a poor binder.
As a blank, each scFv also met three strains without target: over all light chain designs, 4% of these pairings were detected, typically at 430 nM and seldom below 38 nM.